Apparent affinities of Ab-14 variants for a coronavirus HR2 peptide

From the AlphaSeq antibody data of Li et al. 2023 (doi:10.1038/s41467-023-39022-2), copy in the FLAb collection.

Target: peptide PDVDLGDISGINAS, taken from heptad repeat 2 (HR2) of SARS-CoV-2 spike.

Each scFv is VH, the linker GGGGSGGGGSGGGGS, VL, as in the parent Ab-14, and differs from it in the CDRs of the heavy chain only.
VH: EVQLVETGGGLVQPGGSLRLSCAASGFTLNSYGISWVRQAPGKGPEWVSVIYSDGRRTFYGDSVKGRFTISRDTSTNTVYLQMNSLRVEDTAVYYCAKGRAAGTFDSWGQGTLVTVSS
VL: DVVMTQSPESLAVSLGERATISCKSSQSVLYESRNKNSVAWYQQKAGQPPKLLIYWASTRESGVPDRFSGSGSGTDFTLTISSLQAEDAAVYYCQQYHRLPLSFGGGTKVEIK

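The starting antibody came from a phage panning campaign against this peptide. Designed CDR sequences, proposed from the first random library and measured here. Group labels follow the data file (Ctrl: baseline library sampled from a position-specific scoring matrix, with some repeated check sequences; Rand: our label for a block that the file lists under HC and that is probably the random mutants of the ten best first-round binders; En: ensemble of fine-tuned language models; GP: Gaussian process model; GPLM: also part of the Gaussian process libraries; HC: hill climbing; Gen: genetic algorithm; Gibbs: Gibbs sampling; a sequence that several methods proposed may carry one label only). Affinity was read by AlphaSeq, a pooled yeast mating assay with surface-displayed partners. After mating in shaken culture at 30 °C for 16 h, diploids were selected and their barcode pairs sequenced. Read counts were normalised to the haploid input and turned into Kd by a linear fit to BCL2-family pairs of known affinity, for each replicate. There are six technical replicates.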

The parent's heavy chain CDRs are GFTLNSYGIS, VIYSDGRRTFYGDSVK, GRAAGTFDS; each variant's own CDRs replace them letter for letter.
This list holds designs with at most six substitutions.
The Kd shown is the geometric mean over detected replicates; a lower Kd is a better binder.
A pair that was not seen in any replicate is written "no signal"; this usually means weak binding, but a binder can also be missed.
Some sequences occur more than once in the pool; their replicates are pooled.
The authors averaged sequences with at least three values out of six and counted those with two or fewer as poor binders.
A sequence measured in both rounds can read differently, since the two assays cover different ranges.
Background: pairings of all heavy chain designs with three empty control strains gave a value in 1% of cases (median 120 nM, 5th percentile 7.0 nM). Values in that range, when seen in few replicates, are hard to tell from nonspecific mating.

For GFTLNSYGIS | VIYSDGRRTFYTDSVK | GMYAGTFDS [GP_HC], the assay gave 29 nM (4 of 6 replicates).
For GFNLNSYGIS | VIYSDGRRTFYADSVK | GNAAGTFDA [GP_Gibbs], the assay gave 39 nM (6 of 6 replicates).
For GFDLNEYGIS | VIYADGRRTFYTDSVK | GSNAGTFDS [En_HC], the assay gave 210 pM (6 of 6 replicates).
For GFTLNSYGIS | VIYSDGRRTFYGDSVK | GRQAGTFDT [GPLM_Gen], the assay gave 79 nM (6 of 6 replicates).
For GFTLNTYGIS | VIYSDGRRTFYGDSVK | GRAALTFDS [Ctrl], the assay gave no signal (0 of 6 replicates).
For GFTLNEYGIS | VIYSDGKRTFYGDSVK | GRAAGTFMS [GP_HC], the assay gave 440 nM (1 of 6 replicates).
For AFTLNSYGIS | VIYADDRRTFYGDSVK | GAAAGTNKS [Rand], the assay gave no signal (0 of 6 replicates).
For GFVLNSYGIS | VIYSDGRRTFYADSVK | GKEAGTFDS [GPLM_Gibbs], the assay gave 2.3 nM (6 of 6 replicates).
For GFTLNSYGIS | VIYSDGRRTFYADSVK | GNVAGTFDS [Ctrl+GPLM_Gen], the assay gave 9.3 nM (12 of 12 replicates).
For GFVLNDYGIS | VIYSDGRRTFYIDHVK | GKAAGTFDS [GP_HC], the assay gave no signal (0 of 6 replicates).
For GFTLNSYGIS | VIYSDGRRTFYSDSVK | GKVAGTFDS [GPLM_Gibbs], the assay gave 3.9 nM (6 of 6 replicates).
For GFTLNSYGIS | VIYSDGRRTFYADSVK | GRLAGTFDT [GPLM_Gibbs], the assay gave 2.5 nM (6 of 6 replicates).
For GFTLNSYGIS | VMYSDGVRTFYGDAVK | GRAAGTFDS [Ctrl], the assay gave 140 nM (1 of 6 replicates).
For GFTLNSYGIS | VIYADGRRTFYGDQVK | GRAAGTFDS [Ctrl+GP_HC], the assay gave 3.8 nM (12 of 12 replicates).
For GFTLNQYGIS | VIYSDSRRCFYGDSVK | GRAMDTKDS [Ctrl], the assay gave no signal (0 of 6 replicates).
For GFSLNSYGIS | VIYSDGRRTFYADSVK | GRQAGTFDT [GPLM_Gibbs], the assay gave 3.8 nM (4 of 6 replicates).
For GFTLNEYGIS | VIYSDGRRTFYGDSVK | GRAAGTFNQ [GPLM_HC], the assay gave no signal (0 of 6 replicates).
For GFCLNSYGIS | VIYSDGRRTFYNDSVK | GRAAGNFDS [Ctrl], the assay gave no signal (0 of 6 replicates).
For GFELNSYGIS | VIYSDGRRTFYDDSVK | GKAAGTFDS [GP_Gen], the assay gave 1.8 nM (6 of 6 replicates).
For GFTLNSYGIS | VIYIDGRRTFYDDCVK | GQLAGTFDS [Rand], the assay gave no signal (0 of 6 replicates).
For GLELNDYGIS | VIYSDGRRTFYMDSVK | GRAADTFDS [Ctrl], the assay gave no signal (0 of 6 replicates).
For GFTLNMYGIS | VIYSDGRRTFYSDSVK | GRAAGFFDL [Rand], the assay gave no signal (0 of 6 replicates).
For GFTLNEYGIS | VIYSDGRRTFYGDAVK | GRTAGTFIS [GP_HC], the assay gave no signal (0 of 6 replicates).
For GFTLNSYGIS | VIYSDGRRAFYDDSVK | GIAAQTFDS [Ctrl], the assay gave no signal (0 of 6 replicates).
For GFNINSQGIS | VIYSDGRRTFYGDSVK | GRAAGTFDS [Ctrl], the assay gave 140 nM (2 of 6 replicates).
For GFSLNSYGIS | VIYSDGRRTFYSDDVK | GQAAGTFDS [GPLM_Gen], the assay gave 1.3 nM (6 of 6 replicates).
For GFTLNDYGIS | VIYSDGRRTEYIDSVK | GRAAMTFDS [Rand], the assay gave no signal (0 of 6 replicates).
For GFTLNEYGIS | VIYSDGRRTFYGDSVK | GHAAGTFDK [GPLM_Gen], the assay gave 2.2 nM (4 of 6 replicates).
For GFHVNSYGIS | VIYSDGRRTFYADSVK | GRVAGTFDS [Ctrl], the assay gave 8.6 nM (5 of 6 replicates).
For GFTLNSYGIS | VIYADGRRTFYGDSVK | GEAAGSFDS [Ctrl], the assay gave 11 nM (6 of 6 replicates).
For GFELNSYGIS | VIYSDGRRTFYADSVK | GVTAGTFDS [GPLM_Gibbs], the assay gave 2.9 nM (6 of 6 replicates).
For GFTLNEYGIS | VIYSDGRRTFMGDSVK | GRATGTFDS [Ctrl], the assay gave no signal (0 of 6 replicates).
For GFWLNEYGIS | VIYSDGRRTFYGDSVK | GHAAGTFDS [GP_Gen], the assay gave 45 nM (2 of 6 replicates).
For GFTINSYGIS | VIYSDGRRTFYGGSVK | GRAAGTFDS [Ctrl], the assay gave 64 nM (2 of 6 replicates).
For GFVLNSYGIS | VIYSDGRRTFYADSVK | GREAGTFDT [GPLM_Gibbs], the assay gave 6.0 nM (5 of 6 replicates).
For GFDLNSYGIS | VIYSDGYRTFYGDSVK | GRTAGTFDS [GPLM_Gen], the assay gave 2.1 nM (6 of 6 replicates).
For GFTLNDYGID | VIYQDGRMTQYIDSVK | GRAAGTFDS [Rand], the assay gave 42 nM (2 of 6 replicates).

Excerpt, the final 5 entries:

GFWLNEYGIS | VIYSDGRRTFYGDSVK | GHAAGTFDS [GP_Gen]: 45 nM (2 of 6 replicates).
GFTINSYGIS | VIYSDGRRTFYGGSVK | GRAAGTFDS [Ctrl]: 64 nM (2 of 6 replicates).
GFVLNSYGIS | VIYSDGRRTFYADSVK | GREAGTFDT [GPLM_Gibbs]: 6.0 nM (5 of 6 replicates).
GFDLNSYGIS | VIYSDGYRTFYGDSVK | GRTAGTFDS [GPLM_Gen]: 2.1 nM (6 of 6 replicates).
GFTLNDYGID | VIYQDGRMTQYIDSVK | GRAAGTFDS [Rand]: 42 nM (2 of 6 replicates).